Results on one compound are retold here after patent US9896418B2 (dated 2018).

The experiment relates to 786-O cells. Kind of experiment: VEGF ELISA Assay. Type of experiment: cell-based. The settings on record: read-out: Mean VEGF ELISA EC50.

`O=S(=O)(c1ccc(Oc2cc(F)cc(Cl)c2)c(Br)c1CO)C(F)F` [Compound 74, (2-bromo-3-(3-chloro-5-fluorophenoxy)-6-((difluoromethyl)sulfonyl)phenyl)methanol]: the EC50 came to 320 nM.

In general, EC50 refers to the concentration giving half of the maximal effect.
